The values that follow are results of earlier work, collected in patent US20230263825A1, “ANTI-CANCER ACTIVITY OF PERBORATE SALTS” (priority 2020, published 2023).

SMILES strings stand for the structures.

For series [1] the following is noted: up to 18 mg of boron daily in adults; cited from earlier work.
The conditions of series [2]: mammalian systems; cited from earlier work.

`[B]` [boron]: in series [1], the side effects entry is given as “does not cause any side effects”. In addition, the “time to excretion through the urinary tract” value in series [2] was at most 96 h.
